Read-outs that look alike come from different tables or passages of the source.
Key:
Human Cot = Human Cot (Homo sapiens (Human), UniProt P41279); experiment: High Throughput Cot Biochemical Assay
TNFα = experiment: Cot Monocyte TNFα Cell Based Assay
[1] = Homo sapiens, Monocyte, read-out: EC50 TNF, LPS-stimulated human monocytes, TNFα TR-FRET
[2] = IC50 HTRF, Cot HTRF (TR-FRET) biochemical assay
[3] = Homo sapiens, Monocyte, read-out: EC50 TNF, LPS-stimulated human monocytes, TNFα
[4] = read-out: EC50 TNF, LPS-stimulated human monocytes, TNFα

Amino acid sequences for entries named in this document (tags omitted). Residues count along the entry.
UniProt P41279, 30-397: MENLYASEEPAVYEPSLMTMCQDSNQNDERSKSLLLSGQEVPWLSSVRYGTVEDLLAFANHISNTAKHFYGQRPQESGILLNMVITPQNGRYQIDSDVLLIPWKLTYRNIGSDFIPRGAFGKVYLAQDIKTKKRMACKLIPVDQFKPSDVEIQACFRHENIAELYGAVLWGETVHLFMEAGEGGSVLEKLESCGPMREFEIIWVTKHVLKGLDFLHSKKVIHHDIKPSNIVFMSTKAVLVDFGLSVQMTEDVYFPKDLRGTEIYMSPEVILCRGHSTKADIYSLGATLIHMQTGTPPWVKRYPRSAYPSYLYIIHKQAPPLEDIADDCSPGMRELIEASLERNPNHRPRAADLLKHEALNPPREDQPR

| EC50 (TNFα; [3]) [µM] | Compound | also measured |
| --- | --- | --- |
| – | COc1nccc2c([C@H](Nc3cc(Cl)c4ncc(C#N)c(NCC(C)(C)C(F)(F)F)c4c3)c3cn(C4(C5CC5)CC4)nn3)cccc12 [Example 926, (S)-6-(((4-(1-(1,1-bi(cyclopropan)]-1-yl)-1H-1,2,3-triazol-4-yl)(1-methoxylsoquinolin-5-yl)methyl)amino)-8-chloro-4-((3,3,3-trifluoro-2,2-dimethylpropyl)amino)quinoline-3-carbonitrile] | IC50 (Human Cot; read-out: IC50 HTRF, Cot HTRF (TR-FRET KinEASE) biochemical assay, 400 μM ATP): 0.013 µM; EC50 (TNFα; read-out: EC50 TNF, LPS-stimulated human monocytes, TNFα TR-FRET): 0.174 µM |
| – | CC(C)(C)CNc1c(C#N)cnc2c(Cl)cc(N[C@H](c3cn(C4(C(F)(F)F)CC4)nn3)c3cccc4ncc(F)cc34)cc12 [Example 937, (S)-8-chloro-6-(((3-fluoroquinolin-5-yl)(1-(1-(trifluoromethyl)cyclopropyl)-1H-1,2,3-triazol-4-yl)methyl)amino)-4-(neopentylamino)quinoline-3-carbonitrile] | IC50 (Human Cot; IC50 HTRF, Cot HTRF (TR-FRET KinEASE) biochemical assay, 400 μM ATP): 0.023 µM; EC50 (TNFα; [1]): 0.277 µM |
| 0.565 | N#Cc1cnc2c(Cl)cc(N[C@@H](c3cscn3)c3cn(CCN4CCOCC4)nn3)cc2c1Nc1ccc(F)c(Cl)c1 [Example 352, (S)-8-chloro-4-((3-chloro-4-fluorophenyl)amino)-6-(((1-(2-morpholinoethyl)-1H-1,2,3-triazol-4-yl)(thiazol-4-yl)methyl)amino)-quinoline-3-carbonitrile] | IC50 (Human Cot; [2]): 0.012 µM |
| 0.077 | Cc1n[nH]c2cccc([C@H](Nc3cc(Cl)c4ncc(C#N)c(NCC(C)(C)C)c4c3)c3cn(C4(C(F)(F)F)CC4)nn3)c12 [Example 524, (S)-8-chloro-6-(((3-methyl-1H-indazol-4-yl)(1-(1-(trifluoromethyl)cyclopropyl)-1H-1,2,3-triazol-4-yl)methyl)amino)-4-(neopentylamino)quinoline-3-carbonitrile] | IC50 (Human Cot; [2]): 0.012 µM |
| 0.666 | CCN1CCc2c([C@H](Nc3cc(Cl)c4ncc(C#N)c(Nc5ccc(F)c(Cl)c5)c4c3)c3c[nH]nn3)csc2C1 [Example 270, (S)-8-chloro-4-((3-chloro-4-fluoro-phenyl)amino)-6-(((6-ethyl-4,5,6,7-tetrahydrothieno[2,3-c]pyridin-3-yl)(1H-1,2,3-triazol-4-yl)methyl)-amino)quinoline-3-carbonitrile] | – |
| 0.373 | CC(C)(C)N1CCC(n2cc([C@@H](Nc3cc(Cl)c4ncc(C#N)c(NC5CCCCC5)c4c3)c3cccnc3)nn2)CC1 [Example 287, (S)-6-(((1-(1-(tert-butyl)piperidin-4-yl)-1H-1,2,3-triazol-4-yl)(pyridin-3-yl)methyl)amino)-8-chloro-4-(cyclohexylamino)quinoline-3-carbonitrile] | – |
| 0.047 | Cn1c(=O)ccc2c([C@H](Nc3cc(Cl)c4ncc(C#N)c(NCC(C)(C)C)c4c3)c3cn(C45CC(C4)C5)nn3)cccc21 [Example 786, (S)-6-(((1-(bicyclo[1.1.1]pentan-1-yl)-1H-1,2,3-triazol-4-yl)(1-methyl-2-oxo-1,2-dihydroquinolin-5-yl)methyl)amino)-8-chloro-4-(neopentylamino)quinoline-3-carbonitrile] | – |
| 0.023 | CC(C)(C)CNc1c(C#N)cnc2c(Cl)cc(N[C@H](c3cn(C4CC4)nn3)c3csc4c3CCN(C3COC3)C4)cc12 [Example 80, (S)-8-chloro-6-(((1-cyclopropyl-1H-1,2,3-triazol-4-yl)(6-(oxetan-3-yl)-4,5,6,7-tetrahydrothieno[2,3-c]pyridin-3-yl)methyl)amino)-4-(neopentylamino)-quinoline-3-carbonitrile] | – |
| – | Cc1n[nH]c2cccc([C@H](Nc3cc(C#N)c4ncc(C#N)c(NCC(C)(C)C)c4c3)c3cn(C4(C(F)F)CC4)nn3)c12 [Example 571] | EC50 (TNFα; [4]): 0.077 µM |
| 0.087 | Cc1ncccc1[C@H](Nc1cc(Cl)c2ncc(C#N)c(Nc3ccc(F)c(Cl)c3)c2c1)c1cn(C(C)C)nn1 [Example 282, (S)-8-chloro-4-((3-chloro-4-fluorophenyl)amino)-6-(((1-isopropyl-1H-1,2,3-triazol-4-yl)(2-methylpyridin-3-yl)methyl)amino)-quinoline-3-carboni trile] | – |
| – | Cc1nc(F)ccc1[C@H](Nc1cc(Cl)c2ncc(C#N)c(NCC(C)(C)C)c2c1)c1nnn(C2(C)CC2)c1F [Example 947, (S)-8-chloro-6-(((5-fluoro-1-(1-methylcyclopropyl)-1H-1,2,3-triazol-4-yl)(6-fluoro-2-methyl-pyridin-3-yl)methyl)amino)-4-(neopentylamino)quinoline-3-carbonitrile] | EC50 (TNFα; [1]): 0.039 µM |
| 0.071 | Cc1nc(F)ccc1[C@H](Nc1cc(Cl)c2ncc(C#N)c(NCC(C)(C)C)c2c1)c1cn(C2(C#N)CC2)nn1 [Example 476, (S)-8-chloro-6-(((1-(1-cyanocyclopropyl)-1H-1,2,3-triazol-4-yl)(6-fluoro-2-methylpyridin-3-yl)methyl)amino)-4-(neopentylamino)-quinoline-3-carbonitrile] | – |
| – | CC(C)(C)CNc1c(C#N)cnc2c(C#N)cc(N[C@H](c3cn(C4(C5CC5)CC4)nn3)c3cccc4ncccc34)cc12 [Example 696] | EC50 (TNFα; [4]): 0.014 µM |
| 0.077 | [2H]C(Nc1cc(Cl)c2ncc(C#N)c(NCC(C)(C)C)c2c1)(c1cn(C2CC2)nn1)c1ccc(F)nc1C (stereo not shown) [Example 111, 8-chloro-6-(((1-cyclopropyl-1H-1,2,3-triazol-4-yl)(6-fluoro-2-methylpyridin-3-yl)methyl-d)amino)-4-(neopentylamino)quinoline-3-carbonitrile] | – |
| 0.077 | Cc1nc(F)ccc1[C@H](Nc1cc(F)c2ncc(C#N)c(NCC(C)(C)C)c2c1)c1cn(C2(C(F)F)CC2)nn1 [Example 514, (S)-6-(((1-(1-(difluoromethyl)cyclopropyl)-1H-1,2,3-triazol-4-yl)(6-fluoro-2-methylpyridin-3-yl)methyl)amino)-8-fluoro-4-(neopentylamino)quinoline-3-carbonitrile] | – |
| – | Cc1nc(F)ccc1[C@H](Nc1cc(C#N)c2ncc(C#N)c(NCC(C)(C)C)c2c1)c1nnn(C)c1F [Example 906, (S)-6-(((5-fluoro-1-methyl-1H-1,2,3-triazol-4-yl)(6-fluoro-2-methylpyridin-3-yl)methyl)amino)-4-(neopentylamino)quinoline-3,8-dicarbonitrile] | EC50 (TNFα; [1]): 0.039 µM |
| 0.047 | CC(C)(C)CNc1c(C#N)cnc2c(C#N)cc(N[C@H](c3cn(C4(C(F)(F)F)CC4)nn3)c3cccc4ccncc34)cc12 [Example 535, (S)-6-((isoquinolin-8-yl(1-(1-(trifluoro-methyl)cyclopropyl)-1H-1,2,3-triazol-4-yl)methyl)amino)-4-(neopentylamino)-quinoline-3,8-dicarbonitrile] | – |
| – | Cc1nc(F)ccc1[C@H](Nc1cc(Cl)c2ncc(C#N)c(NCC(C)(C)C(F)(F)F)c2c1)c1nnn(C2CC2)c1F [Example 958, (S)-8-chloro-6-(((1-cyclopropyl-5-fluoro-1H-1,2,3-triazol-4-yl)(6-fluoro-2-methylpyridin-3-yl)methyl)amino)-4-((3,3,3-trifluoro-2,2-dimethylpropyl)amino)quinoline-3-carbonitrile] | EC50 (TNFα; [1]): 0.056 µM |

Reference: patent publication US11066414B2, “Cot modulators and methods of use thereof” (Gilead Sciences, Inc., priority 2015, dated 2021)
